The values below are quoted from earlier work in article PMC8243516, “Inhibition of lysosomal phospholipase A2 predicts drug-induced phospholipidosis” (Journal of Lipid Research, 2021).

Sequences of proteins named here, by UniProt entry; tags and fusion partners are left off. A change or cut given only in a name is not applied to a line headed by its entry.
UniProt Q8VEB4: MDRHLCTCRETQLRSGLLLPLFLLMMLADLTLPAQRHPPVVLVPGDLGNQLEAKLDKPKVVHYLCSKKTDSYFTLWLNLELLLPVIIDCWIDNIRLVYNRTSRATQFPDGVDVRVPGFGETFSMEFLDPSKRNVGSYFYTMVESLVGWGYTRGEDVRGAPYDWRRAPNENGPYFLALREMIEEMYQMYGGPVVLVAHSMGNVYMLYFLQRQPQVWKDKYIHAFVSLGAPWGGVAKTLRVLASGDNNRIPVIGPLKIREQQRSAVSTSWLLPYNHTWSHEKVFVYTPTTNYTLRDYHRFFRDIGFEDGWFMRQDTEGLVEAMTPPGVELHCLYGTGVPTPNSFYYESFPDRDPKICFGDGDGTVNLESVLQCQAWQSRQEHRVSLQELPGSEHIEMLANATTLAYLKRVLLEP

For the data set, the target named is LPLA2 (Mus musculus, UniProt Q8VEB4). The conditions noted are these: covalent binding to catalytic serine; cited from earlier work.

As to methyl arachidonyl fluorophosphonate, the “Increase of melting temperature of LPLA2” value is 12 °C.
